# ChEMBL document CHEMBL1153969, “N-Hydroxy-(4-oxime)-cinnamide: a versatile scaffold for the synthesis of novel histone deacetylase [correction of deacetilase] (HDAC) inhibitors” (Bioorg Med Chem Lett, 2009)
# Protein sequences, listed by entry. Tags and fused reporters are not part of them. Lines headed by an entry give the natural chain unless they say otherwise; changes in a name come on top.
# UniProt Q9UQL6: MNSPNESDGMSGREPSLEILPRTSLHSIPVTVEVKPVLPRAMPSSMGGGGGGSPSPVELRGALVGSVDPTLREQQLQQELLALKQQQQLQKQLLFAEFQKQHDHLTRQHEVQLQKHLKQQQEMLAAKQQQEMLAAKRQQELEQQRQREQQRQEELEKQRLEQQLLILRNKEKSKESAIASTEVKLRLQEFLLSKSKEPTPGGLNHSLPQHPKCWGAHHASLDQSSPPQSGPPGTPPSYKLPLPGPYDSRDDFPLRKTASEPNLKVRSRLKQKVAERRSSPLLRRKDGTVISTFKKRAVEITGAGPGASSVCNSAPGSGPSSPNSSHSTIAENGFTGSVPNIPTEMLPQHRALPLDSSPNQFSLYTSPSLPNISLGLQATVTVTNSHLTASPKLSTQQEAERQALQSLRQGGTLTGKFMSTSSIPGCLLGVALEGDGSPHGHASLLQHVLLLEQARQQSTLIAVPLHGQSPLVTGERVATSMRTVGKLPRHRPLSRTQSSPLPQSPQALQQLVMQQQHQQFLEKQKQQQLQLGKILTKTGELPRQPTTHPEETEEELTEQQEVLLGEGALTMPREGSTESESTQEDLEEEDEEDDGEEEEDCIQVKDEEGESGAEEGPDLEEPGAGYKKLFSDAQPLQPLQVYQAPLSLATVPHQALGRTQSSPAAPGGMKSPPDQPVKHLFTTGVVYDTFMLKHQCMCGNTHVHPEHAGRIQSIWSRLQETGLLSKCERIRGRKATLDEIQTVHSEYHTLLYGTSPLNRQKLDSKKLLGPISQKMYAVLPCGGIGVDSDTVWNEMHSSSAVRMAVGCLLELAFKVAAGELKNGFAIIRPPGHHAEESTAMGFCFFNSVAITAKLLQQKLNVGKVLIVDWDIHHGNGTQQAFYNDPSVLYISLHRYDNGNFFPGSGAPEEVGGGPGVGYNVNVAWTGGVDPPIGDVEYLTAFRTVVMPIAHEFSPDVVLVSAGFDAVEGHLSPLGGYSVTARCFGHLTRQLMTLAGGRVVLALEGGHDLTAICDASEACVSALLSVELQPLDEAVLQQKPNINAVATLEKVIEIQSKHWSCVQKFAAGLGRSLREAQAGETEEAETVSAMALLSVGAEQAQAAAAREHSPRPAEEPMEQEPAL
# UniProt Q9UKV0: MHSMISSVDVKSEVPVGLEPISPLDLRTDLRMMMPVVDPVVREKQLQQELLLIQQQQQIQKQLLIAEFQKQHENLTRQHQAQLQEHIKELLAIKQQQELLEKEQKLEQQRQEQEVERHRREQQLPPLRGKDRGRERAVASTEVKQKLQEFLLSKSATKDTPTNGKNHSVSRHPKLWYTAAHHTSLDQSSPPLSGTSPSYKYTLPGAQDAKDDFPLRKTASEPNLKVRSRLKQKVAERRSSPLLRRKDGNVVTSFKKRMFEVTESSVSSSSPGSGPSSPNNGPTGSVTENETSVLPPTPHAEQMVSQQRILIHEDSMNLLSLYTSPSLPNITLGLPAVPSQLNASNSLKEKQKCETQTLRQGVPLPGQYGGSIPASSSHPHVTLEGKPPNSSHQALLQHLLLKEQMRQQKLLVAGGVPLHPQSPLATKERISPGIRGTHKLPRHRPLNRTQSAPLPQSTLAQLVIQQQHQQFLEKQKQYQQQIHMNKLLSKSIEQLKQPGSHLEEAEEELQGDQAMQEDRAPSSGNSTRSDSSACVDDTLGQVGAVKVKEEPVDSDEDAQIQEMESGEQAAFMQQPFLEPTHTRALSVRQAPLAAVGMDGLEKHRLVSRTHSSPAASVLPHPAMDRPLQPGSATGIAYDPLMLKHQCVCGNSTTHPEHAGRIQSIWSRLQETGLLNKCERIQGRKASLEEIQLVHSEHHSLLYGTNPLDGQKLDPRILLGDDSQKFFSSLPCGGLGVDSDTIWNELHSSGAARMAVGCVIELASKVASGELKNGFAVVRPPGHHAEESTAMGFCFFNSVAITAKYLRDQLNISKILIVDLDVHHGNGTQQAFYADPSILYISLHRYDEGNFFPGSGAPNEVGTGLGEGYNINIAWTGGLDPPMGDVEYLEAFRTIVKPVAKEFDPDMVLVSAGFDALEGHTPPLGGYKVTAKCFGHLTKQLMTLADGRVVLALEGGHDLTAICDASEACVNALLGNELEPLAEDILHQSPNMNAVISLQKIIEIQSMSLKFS
# Assays:
# Histone deacetylase 5 = Histone deacetylase 5 (Homo sapiens, UniProt Q9UQL6); test: Inhibition of human HDAC5
# Histone deacetylase 9 = Histone deacetylase 9 (Homo sapiens, UniProt Q9UKV0); test: Inhibition of human HDAC9
smiles,measurement,setting,value
CC(/C=C/C(=O)NO)=C\[C@@H](C)C(=O)c1ccc(N(C)C)cc1 [TRICHOSTATIN],IC50,Histone deacetylase 5,16 nM
same,IC50,Histone deacetylase 9,38 nM
